Test results taken from patent publication US10363323B2, “Hydrophobic modified peptides for liver specific diagnosis” (RUPRECHT-KARLS-UNIVERSITAT HEIDELBERG, priority 2011, dated 2019).

System: liver of a WAG/Rji rat
Details: in vivo
Procedure: The rats were orthopically injected with 1×10^6 syngenic colon carcinoma cells (CC531 cells) 10 days prior to the measurements. At the day of measurement the rats received the peptide in a concentration of 400 nmol/kg body weight. During the experiments the rats were anaesthetised by isoflurane and kept at 37° C.

Question: For “Fluodeoxyglucose(^18F) [^18F-FDG, reference compound]”, which “enrichment of the counterstain in organs (PET image)” value is on record?
Answer: enriched in organs consuming high amounts of glucose
